# Rango release inh – inhibition of RanGTP-driven Rango-importin beta dissociation; O95149+P62826; Potency, µM (highest dose often 46.1 µM); Biochemical FRET Rango-importin beta, RanGTP-induced dissociation; AID 540253; 0.071% of 340,000 active; calls by dose curve; also: nearly all actives have a fitted effect of over 45% in size
#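 Rango/importin beta premix (0.1/0.25 uM final), PBS + 1 mM DTT + 0.02% Tween-20 + 0.1% BSA; cpd 5 min RT; FRET pre-read; + RanGTP-RCC1 (0.6 uM Ran, 2 mM GTP, 0.2 uM RCC1); 45 min RT; FRET post-read, ex 430, em 486/530 nm.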
# Rango-impB inh – prevents formation of the Rango-importin beta complex; 0.031% of 340,000 active; Q14974; Rango CFP/YFP FRET sensor + importin beta, 45 min; AID 540263; Potency, µM (top dose mostly 92.2 µM); calls by dose curve; also: nearly all actives have a fitted effect of over 15% in size
#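 FRET biosensor (snurportin 1 IBB flanked by EYFP and cerulean), 50 nM, with compound 5 min, then 0.125 microM importin beta in PBS, 1 mM DTT, 0.02% Tween-20, 0.1% BSA. CFP/YFP ratio read after 45 min at room temperature; pre-read flags interference.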
# KinaseGlo FLuc – Kinase-Glo luciferase inhibition (counter-screen) | 0.28% of 200,000 active | AID 1379 | Kinase-Glo luciferase, ATP luminescence, 8 min | Q27757 | Potency, µM (titrated, usually from 38.3 µM), usual class: inhibitors; also: nearly all actives have a fitted effect of over 60% in size
#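 Recombinant Kinase-Glo luciferase, 10 uM ATP (linear range), luciferin; imidazole pH 7.2 / KCl / MgCl2 / Tween / BSA buffer; 8 min RT; luminescence.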
# BCR signal inh – blocks chronic active B-cell receptor signaling. Potency, µM (series often up to 46.1 µM), actives largely listed as inhibitors. 0.05% of 340,000 active. AID 493014. ABC-DLBCL IkBa-CBG/CBR reporter, luminescence ratio, 4 h; active = well fitted inhibition curve with a large enough effect in the signal ratio, with a control signal flat, not every such curve was filed as active; inconclusive = small, poorly fitted or top-dose-only effect, or effect the other way, or a change in a side signal; the % refers to the signal ratio
#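 Concentration-response series (up to 46 uM) were applied to TMD8 dual-reporter cells for 4 h at 37C with doxycycline. Green/red ratio, after filter-overlap correction, defined %Activity; red signal alone was normalised to basal cells and zero luminescence.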
# Tb PFK inh – T. brucei PFK enzyme inhibition. O15648. T. brucei PFK, ADP-Glo luminescence. Potency, µM (doses to about 57.5 µM), actives largely listed as inhibitors. 0.17% of 330,000 active; also: nearly all actives have a fitted effect of over 60% in size
#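 1.25 nM PFK with 0.5 mM F6P and 0.1 mM ATP in 0.1 M TEA pH 8.0, 5 mM MgCl2, incubated 45 min at room temperature; ADP measured by ADP-Glo luminescence; compounds titrated up to 57 uM.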
# Lamin A splicing – LMNA splicing modulation; HeLa LMNA splicing GFP/RFP minigene ratio, 48 h; Potency, µM (doses to about 46.1 µM), most hits filed as inhibitors; 0.01% of 200,000 active; AID 1487; active = well fitted inhibition curve with a large enough effect in the signal ratio, with a control signal flat, not every such curve was filed as active; inconclusive = small, poorly fitted or top-dose-only effect, or effect the other way, or a change in a side signal; the % refers to the signal ratio
#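 Read-out is the ratio of GFP to DsRed2 object intensity, acquired by 488 nm laser-scanning cytometry on HeLa lamin A-EGFP minigene reporter cells. Compound incubation 48 hrs at 37 °C in Opti-MEM with 2% FBS; DMSO 0.5% final.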
# Numbers stand for hits; - = inactive; ? = inconclusive; . = not tested or not shown; ! = repeats disagree; [ ] = dose if it differs, or a comment. Rows were chosen to be rich in hits. Some 0.44% of all compounds tested hit in one or more screens of this group. Unless noted, calls follow the shape of the dose curve; as a rule, active = well fitted curve in the direction sought with a large enough effect; inconclusive = small, poorly fitted or top-dose-only effect, or another doubt; inactive = no such curve, though single readings can be large; an effect the other way counts as inactive or inconclusive.
SMILES,Rango release inh,Rango-impB inh,KinaseGlo FLuc,BCR signal inh,Tb PFK inh,Lamin A splicing
c1ccc(-c2nc3ccccc3[nH]2)nc1,-,-,7.9µM,?,-,?
Cc1csc(NC(=O)c2cn3ccccc3n2)n1,-,-,10µM,?,-,-
CSc1ccccc1NC(=O)c1ccccc1,-,-,-,-,-,.
C#CCOCCOCCOCCNc1nc(N2CCN(C(=O)[C@H](CCCCN)n3cc([C@@H](N)C(C)CC)nn3)CC2)nc(N2CCN(C(=O)[C@H](CCCCN)n3cc([C@@H](N)CC(C)C)nn3)CC2)n1 (stereo partly drawn),-,52µM,.,-,-,.
C#CCOCCOCCOCCNc1nc(N2CCOCC2)nc(N2CCN(C(=O)[C@H](CCCN=C(N)N)n3cc(C(N)[C@@H](C)CC)nn3)CC2)n1 (stereo partly drawn),-,-,.,-,-,.
C#CCOCCOCCOCCNc1nc(N2CCN(C(=O)[C@H](CCCN=C(N)N)n3cc(C(N)[C@H](C)CC)nn3)CC2)nc(N2CCN(C(=O)[C@H](CCCN=C(N)N)n3cc(C(N)[C@@H](C)CC)nn3)CC2)n1 (stereo partly drawn),?,65µM,.,-,-,.
C#CCOCCOCCOCCNc1nc(N2CCN(C(=O)CCCCCCCCCCNC(=O)[C@H](CCCCN)n3cc(CCCC(=O)O)nn3)CC2)nc(N2CCN(C(=O)CCCCCCCCCCNC(=O)[C@H](CCCN=C(N)N)n3cc(C[C@@H](C)CC)nn3)CC2)n1,-,-,.,?,-,.
C#CCOCCOCCOCCNc1nc(N2CCN(C(=O)CCCCCCCCCCNC(=O)[C@H](CCCCN)n3cc(CCO)nn3)CC2)nc(N2CCN(C(=O)CCCCCCCCCCNC(=O)[C@H](CCCN=C(N)N)n3cc(C[C@@H](C)CC)nn3)CC2)n1,?,65µM,.,?,-,.
O=C1c2c(O)ccc(O)c2C(=O)c2c(NCCNCCO)ccc(NCCNCCO)c21,?,-,13µM!,?,-,?
COc1ccc(C=C2C(=O)c3ccccc3C2=O)cc1O,-,-,7.9µM,?,-,.
CCN(CC)c1nc2ccccc2nc1-n1nc(C)cc1C,15µM,?,-,-,-,-
C=CCC1(CC=C)CCCN1C(=O)c1cc(COc2cccc(C(F)(F)F)c2)on1,-,-,.,-,-,.
c1ccc(-c2nc3ccccc3o2)nc1,-,-,-,-,-,-
c1ccc2nc(-c3nc4ccccc4o3)ccc2c1,-,-,1µM,?,?,-
CN(C)C(=O)c1ccc(-c2nc(N(C)C)c3ccccc3n2)cc1,.,.,11µM,.,.,-
CCOc1ccc(C2=Nn3cnnc3SC2)cc1,-,-,-,-,-,?
Cc1cc(=O)[nH]c(N/N=C/c2sccc2C)n1,-,-,11µM,?,-,-
Cc1cc(=O)[nH]c(N/N=C/c2cccs2)n1,-,-,-,-,-,?
Cn1cccc1C(=O)C(=O)Nc1ccccc1,-,-,13µM,?,-,-
O=C(Nc1ccccc1)Nc1ccc2ncoc2c1,-,-,-,?,-,.
O=C(Nc1ccccc1)Nc1ccc2ocnc2c1,-,-,11µM,?,-,-
CCOC(=O)N1CCC(NC(=O)CCS(=O)(=O)c2ccc3c(c2)CCN3C(C)=O)CC1,-,-,-,-,-,-[0.0737 µM]
CCOc1ccc(NC(=O)Nc2ccccc2SC)cc1,-,-,11µM,?,-,.
CCc1ccc(NC(=O)C(C)OC(=O)/C=C/c2ccc(O)c(OC)c2)cc1 (stereo not drawn),?,?,.,21µM,-,.
COC(=O)c1ccc(CNC(=O)COC(=O)/C=C/c2ccc(O)c(OC)c2)cc1,18µM,?,.,?,-,.
SMILES,Rango release inh,Rango-impB inh,KinaseGlo FLuc,BCR signal inh,Tb PFK inh,Lamin A splicing
COc1cc(/C=C/C(=O)OC(C)C(=O)Nc2c(C)n(C)n(-c3ccccc3)c2=O)ccc1O (stereo not drawn),23µM,?,.,-,-,.
CCN(CCN(C)C)C(=O)c1ccc2c(c1NCCO)C(=O)c1ccccc1C2=O,-,-,?,?,-,.
O=C(CCn1c(=O)c2cccn2c2ccc(F)cc21)NCCc1ccccc1Cl,.,.,.,.,.,-
CCCN1C2=C(C(=O)CC(C)(C)C2)C(c2ccc(F)cc2)C2=C1c1ccccc1C2=O (stereo not drawn),-,-,-,?,-,-
Cc1cccc(C(=O)NCC(=O)NCC(c2cccs2)N2CCOCC2)c1 (stereo not drawn),-,-,.,-,-,.
O=C(O)c1ccc(C=C(c2nc3ccccc3s2)c2nc3ccccc3s2)cc1,?,?,-,-,-,-
CN(C)c1ccc(/C=C(\Cl)c2nc3ccccc3s2)cc1,?,?,13µM,?,-,?
CC(C(=O)O)N1C(=O)/C(=C/c2cccn2C)SC1=S (stereo not drawn),2.6µM,?,-,-,-,?
CCC(C(=O)O)N1C(=O)/C(=C/c2cccn2C)SC1=S (stereo not drawn),?,?,-,-,-,-
O=S(=O)(c1ccc(Cl)nc1)N1CCN(Cc2ccc3c(c2)OCO3)CC1,-,-,-,-,-,-
C=C(C)C(=O)Nc1cccc(C2=NOC3(C2)C[C@@H](C(N)=O)N(C(=O)C2(C)CC2)C3)c1 (stereo partly drawn),-,-,.,-,1.5µM,.
C=C(C)C(=O)Nc1cccc(C2=NOC3(C2)C[C@H](C(N)=O)N(C(=O)c2ccccc2)C3)c1 (stereo partly drawn),-,-,.,-,-,.
COc1ccc(NC(=O)CCN2CCN(S(=O)(=O)c3cc(Cl)ccc3OC)CC2)cc1,-,-,-,?,-,-
Cc1ccc(-c2cc(=O)c3ccccc3[nH]2)cc1,-,-,-,-,-,?
Cc1ccc2[nH]c(-c3ccccc3)cc(=O)c2c1,-,-,-,5.6µM,-,?
Cc1ccc(C)n1-c1cccc(C(=O)O)c1,.,.,-,-,11µM,-
COc1ccccc1Nc1nc(-c2c(C)[nH]c3ccccc23)cs1,12µM,?,-,-,-,-
Cc1[nH]c2ccccc2c1-c1csc(N)n1,-,?,.,?,-,.
CCc1c(C)c(C#N)c2nc3ccccc3n2c1Cl,.,.,-,8.2µM,-,?
c1ccc2c(c1)Cc1cc3cc4c(cc3nc1-2)OCO4,.,.,2.8µM,.,.,.
c1ccc2c(c1)CCN(c1nc3cc4c(cc3s1)OCO4)C2,-,-,?,?,-,?
C/C(=N/NC(=O)COc1cc(C)ccc1C(C)C)C(=O)O,-,-,-,10µM,-,.
Cc1c(O)ccc(/C=N/Nc2ncccc2[N+](=O)[O-])c1O,-,-,.,-,-,.
O=[N+]([O-])c1cccnc1N/N=C/c1ccccc1O,-,-,2µM,-,-,.

# Bioassay records as filed in PubChem BioAssay.
